Test results reported in patent US7164002B2, “FVIIa antagonists” (Genentech, Inc., priority 2002, dated 2007).

Chains of the proteins cited; added tags and fusions are not shown. Residues count along the entry.
UniProt P08709, 61-212 limits assumed: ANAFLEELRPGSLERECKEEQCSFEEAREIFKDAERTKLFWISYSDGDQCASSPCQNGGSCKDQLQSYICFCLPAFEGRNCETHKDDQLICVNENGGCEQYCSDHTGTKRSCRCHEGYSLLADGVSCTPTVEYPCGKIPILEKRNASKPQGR
UniProt P08709, 213-466 limits assumed: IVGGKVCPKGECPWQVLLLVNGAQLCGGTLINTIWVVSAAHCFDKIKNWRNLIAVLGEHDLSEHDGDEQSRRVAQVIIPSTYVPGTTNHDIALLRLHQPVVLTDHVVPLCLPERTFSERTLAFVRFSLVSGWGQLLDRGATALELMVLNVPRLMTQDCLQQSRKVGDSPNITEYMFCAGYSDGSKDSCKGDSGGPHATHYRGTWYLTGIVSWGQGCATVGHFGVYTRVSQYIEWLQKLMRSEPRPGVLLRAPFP

Target: TF-FVIIa (Homo sapiens, UniProt P08709)
Experiment: Inhibition of TF-FVIIa catalyzed activation of FX
Format: biochemical
Conditions: 300 pM relipidated TF1-243, 20 pM FVIIa, 165 nM FX, 25° C.

## Z-GGSGGDDDDK-EEWEVLCWTWETCER [Z-A-183]
  IC50: 0.66 nM
